According to patent publication US12642862B2, “Anti-CD79B antibody-drug conjugate, and preparation method therefor and pharmaceutical use thereof” (TUOJIE BIOTECH (SHANGHAI) CO., LTD., priority 2020, dated 2026):

Columns and labels:
Raji = format: cell-based; details: Raji (CD79B negative-expression), 72 h, MTT
[1] = system: DOHH-2 cells highly expressing human CD79B protein; format: cell-based; details: DoHH2 cells, 20 μg/mL ADC, 37° C.
Procedure: A cell endocytosis experiment was performed with DOHH-2 cells (DSMZ, ACC 47) highly expressing human CD79B protein to assess the endocytosis ability of ADCs.
The cells were collected by low temperature centrifugation at 4° C. for 5 min at 1000 rpm during the experiment. The cells were resuspended in 10-15 mL of FACS buffer pre-cooled on ice. The FACS buffer was composed of phosphate buffered saline (PBS), pH 7.4, with 2% fetal bovine serum (FBS). Throughout the experiment, FACS buffer was pre-cooled on ice. The cells were counted and centrifuged, and added to a 96-well plate at 300,000 cells/well. After centrifugation, the supernatant was discarded, and 12.5 μg/mL Fc blocking solution (BD, Cat No.: 564220) was added at 100 μL/well. Blocking was performed at room temperature for 10 min. Then, 20 μg/mL test ADC was added to the corresponding wells, and the plate was incubated at 4° C. for 1 h away from the light. The plate was washed twice with a pre-cooled PBS buffer to remove unbound ADCs. A complete cell culture medium (RPMI 1640 medium with 10% fetal bovine serum) was added, and the plate was incubated at 37° C. with 5% CO2 for 0 h and 4 h. After centrifugation, the supernatant was discarded, 2% PFA buffer solution was added at 100 μL/well to resuspend the cells, and the plate was left to stand for 10 min. Then, the plate was washed 3 times with an FACS buffer, and 100 μL of secondary antibody solution (fluorescent labeled goat anti-human secondary antibody: diluted in a 1:250 ratio, 2 μg/mL, Biolegend, Cat #409304) was added. The plate was incubated at 4° C. for half an hour away from the light. A pre-cooled PBS buffer was added, and the supernatant was discarded after centrifugation at 4° C., which were repeated three times. The cells were resuspended in an FACS buffer at 200 μL/well and detected using a flow cytometer (BD FACS Calibur).

DoHH2 = format: cell-based, human; details: DoHH2 (CD79B high-expression), 72 h, MTT
WSU-DLCL2 = format: cell-based, human; details: WSU-DLCL2 (CD79B low-expression), 72 h, MTT
[2] = system: human diffuse large B-cell lymphoma WSU-DLCL2-induced nude mouse subcutaneous xenograft tumor; format: in vivo, nude mice (BALB/c-nu); details: IV; for Mean tumor volume (mm^3) D0: baseline at grouping; for % T/C D21 / % Tumor growth inhibition D21 / Mean tumor volume (mm^3) D21 / Partial regression: single dose D0; for Partial regression: tumors of 6
[3] = system: human follicular lymphoma DOHH-2-induced nude mouse subcutaneous xenograft tumor; format: in vivo, nude mice (BALB/c-nu); details: 1 mg/kg
Procedure: This example was performed to further evaluate and compare the efficacy of ADC drugs on DoHH2-induced nude mouse subcutaneous xenograft tumor.
2. Cells and mice: DOHH-2 cells were purchased from DSMZ, Germany. DOHH-2 cells were cultured in a 10 cm petri dish with an RPMI 1640 culture medium (Gibco) containing 10% fetal bovine serum, penicillin and streptomycin and incubated in an incubator at 37° C. with 5% CO2. Subculturing was performed 2-3 times a week, and cells were collected, counted and seeded when they were in exponential growth phase.
Nude mice, BALB/c-nu, 4-5 weeks of age, female, were purchased from Shanghai Lingchang Biotechnology Co., Ltd, with production license number of SCXK (Shanghai) 2018-0003, and animal certification number of 20180003010222. Housing environment: SPF grade.
3. Experimental steps: each nude mouse was subcutaneously inoculated with 3×10^7 DOHH-2 cells, and after the tumor volume reached 100-150 mm^3, the animals were grouped according to tumor volume (D0). The mice were administrated by intravenous injection (IV) at an administration volume of 10 mL/kg. The tumor volumes and body weights were measured twice a week and the results were recorded.
The experimental index is to study the effect of the drug on the tumor growth, and the specific index is T/C % or tumor growth inhibition TGI (%).
Tumor diameters were measured twice a week with a vernier caliper and tumor volume (V) was calculated according to the following formula: V=½×a×b^2 where a and b represent length and width, respectively.
T/C (%)=(T−T0)/(C−C0)×100 where T and C represent the tumor volume of animals at the end of the experiment in the treatment group and control group, respectively; T0 and C0 represent the tumor volume of animals at the beginning of the experiment in the treatment group and control group, respectively; where T is the tumor volume of the ADC administered and C is the tumor volume of IgG1 administered as a control group.
At the end of the experiment, at the experiment endpoint, or when the mean tumor volume in the solvent group reached 1500 mm^3, the animals were sacrificed by CO2 anesthesia and dissected to give the tumors. The tumors were photographed.
Unless otherwise indicated, comparison between tumor volumes of the two groups was made by two-way ANOVA test, with P<0.05 defined as statistically significant difference.

| Molecule | IC50 (Raji) | Endocytosis rate (4 h) [1] | IC50 (DoHH2) | IC50 (WSU-DLCL2) | Mean tumor volume (mm^3) D0 ([2]; 3 mg/kg) | % T/C D21 ([2]; 3 mg/kg) | % Tumor growth inhibition D21 ([2]; 3 mg/kg) | Mean tumor volume (mm^3) D21 ([2]; 3 mg/kg) | Partial regression ([2]; 3 mg/kg) | Mean tumor volume (mm^3) D0 ([2]; 6 mg/kg) | % T/C D21 ([2]; 6 mg/kg) | % Tumor growth inhibition D21 ([2]; 6 mg/kg) | Mean tumor volume (mm^3) D21 ([2]; 6 mg/kg) | Partial regression ([2]; 6 mg/kg) | other results |
| --- | --- | --- | --- | --- | --- | --- | --- | --- | --- | --- | --- | --- | --- | --- | --- |
| ADC-5: HAB015-10-cys-D, with a DAR value of about 2 (conjugate) heavy: EVQLVQSGAEVKKPGSSVKVSCKASGSSFSSYGINWVKQAPGQGLEWIGEIFPRSGNTYYNEKFEGRATLTADKSTSTAYMELRSLRSEDTAVYYCAKGDLGDFDYWGQGTTVTVSSASTKGPSVFPLAPSSKSTSGGTAALGCLVKDYFPEPVTVSWNSGALTSGVHTFPAVLQSSGLYSLSSVVTVPSSSLGTQTYICNVNHKPSNTKVDKKV[letters of human IgG1 Fc not shown] light: DFVMTQTPLSLPVTPGEPASISCRSSQSIVHSDGNTYFEWYLQKPGQSPKLLIYKVSNRFSGVPDRFSGSGSGTDFTLKISRVEAEDVGVYYCFQGSHVPWTFGGGTKVEIKRTVAAPSVFIFPPSDEQLKSGTASVVCLLNNFYPREAKVQWKVDNALQSGNSQESVTEQDSKDSTYSLSSTLTLSKADYEKHKVYACEVTHQGLSSPVTKSFNRGEC | >10 µg/mL | 76% | 0.0085 µg/mL | 0.0683 µg/mL | 111.0 mm^3 | 31% | 69% | 343.7 mm^3 | 0 | 110.8 mm^3 | 14% | 86% | 218.5 mm^3 | 1/6 and 1 | Mean tumor volume (mm^3) D0 ([2]; 12 mg/kg): 111.3 mm^3; % T/C D21 ([2]; 12 mg/kg): 12%; % Tumor growth inhibition D21 ([2]; 12 mg/kg): 88%; Mean tumor volume (mm^3) D21 ([2]; 12 mg/kg): 203.6 mm^3; Partial regression ([2]; 12 mg/kg): 1/6 and 1 |
| ADC-6: hAb015-10-cys-D, with a target DAR value of about 4 (conjugate) heavy: EVQLVQSGAEVKKPGSSVKVSCKASGSSFSSYGINWVKQAPGQGLEWIGEIFPRSGNTYYNEKFEGRATLTADKSTSTAYMELRSLRSEDTAVYYCAKGDLGDFDYWGQGTTVTVSSASTKGPSVFPLAPSSKSTSGGTAALGCLVKDYFPEPVTVSWNSGALTSGVHTFPAVLQSSGLYSLSSVVTVPSSSLGTQTYICNVNHKPSNTKVDKKV[letters of human IgG1 Fc not shown] light: DFVMTQTPLSLPVTPGEPASISCRSSQSIVHSDGNTYFEWYLQKPGQSPKLLIYKVSNRFSGVPDRFSGSGSGTDFTLKISRVEAEDVGVYYCFQGSHVPWTFGGGTKVEIKRTVAAPSVFIFPPSDEQLKSGTASVVCLLNNFYPREAKVQWKVDNALQSGNSQESVTEQDSKDSTYSLSSTLTLSKADYEKHKVYACEVTHQGLSSPVTKSFNRGEC | >10 µg/mL | 75% | 0.0033 µg/mL | 0.0542 µg/mL | 108.6 mm^3 | −8% | 108% | 99.4 mm^3 | 5/6 and 5 | 108.7 mm^3 | −25% | 125% | 81.2 mm^3 | 6/6 and 6 | Mean tumor volume (mm^3) D0 ([3]; IV, D0, baseline at grouping): 112.9 mm^3; Mean tumor volume (mm^3) D20 ([3]; IV, single dose D0, D20): 82.4 mm^3; Tumor growth inhibition (%) D20 ([3]; IV, single dose D0, D20): 127%; T/C (%) D20 ([3]; IV, single dose D0, D20, control IgG1): −27%; Partial regression ([3]; IV, single dose D0, tumors of 6): 5/6 and 5; efficacy on DoHH2-induced nude mouse subcutaneous xenograft tumor (conclusion) ([3]; single intravenous injection): significant efficacy; Mean tumor volume (mm^3) D0 ([2]; 1.5 mg/kg): 109.7 mm^3; % T/C D21 ([2]; 1.5 mg/kg): 34%; % Tumor growth inhibition D21 ([2]; 1.5 mg/kg): 66%; Mean tumor volume (mm^3) D21 ([2]; 1.5 mg/kg): 366.3 mm^3; Partial regression ([2]; 1.5 mg/kg): 0 |
| ADC-7 (conjugate) heavy: EVQLVQSGAEVKKPGSSVKVSCKASGSSFSSYGINWVKQAPGQGLEWIGEIFPRSGNTYYNEKFEGRATLTADKSTSTAYMELRSLRSEDTAVYYCAKGDLGDFDYWGQGTTVTVSSASTKGPSVFPLAPSSKSTSGGTAALGCLVKDYFPEPVTVSWNSGALTSGVHTFPAVLQSSGLYSLSSVVTVPSSSLGTQTYICNVNHKPSNTKVDKKV[letters of human IgG1 Fc not shown] light: DFVMTQTPLSLPVTPGEPASISCRSSQSIVHSDGNTYFEWYLQKPGQSPKLLIYKVSNRFSGVPDRFSGSGSGTDFTLKISRVEAEDVGVYYCFQGSHVPWTFGGGTKVEIKRTVAAPSVFIFPPSDEQLKSGTASVVCLLNNFYPREAKVQWKVDNALQSGNSQESVTEQDSKDSTYSLSSTLTLSKADYEKHKVYACEVTHQGLSSPVTKSFNRGEC | ~10 µg/mL | 68% | 0.002 µg/mL | 0.0534 µg/mL | – | – | – | – | – | – | – | – | – | – | Mean tumor volume (mm^3) D0 ([2]; 1 mg/kg): 107.0 mm^3; % T/C D21 ([2]; 1 mg/kg): 9%; Mean tumor volume (mm^3) D21 ([2]; 1 mg/kg): 178.1 mm^3; Partial regression ([2]; 1 mg/kg): 1/6 and 1 |

Several values for one entry are separate records, joined by “and”; a condition that tells them apart may be missing. Identical values can stand only once. Like-named read-outs stand apart in the source and are kept apart here.
